{"source": "DBAASP", "key": {"[1]": {"tested_on": "Escherichia coli K-12", "test": "≥ marks a high value that may be exact or a test limit, other limits are often not marked, values filed in µg/mL are converted to µM"}, "[2]": {"tested_on": "Staphylococcus aureus ATCC 12600", "test": "≥ marks a high value that may be exact or a test limit, other limits are often not marked, values filed in µg/mL are converted to µM"}}}
{"smiles": "CC(C)C[C@H](NC(=O)[C@H](Cc1ccccc1)NC(=O)[C@H](C)NC(=O)CNC(=O)[C@H](Cc1c[nH]c2ccccc12)NC(=O)[C@H](CC(N)=O)NC(=O)[C@@H](N)CC(C)C)C(=O)N[C@@H](CCCCN)C(=O)N[C@@H](Cc1cnc[nH]1)C(=O)N[C@@H](Cc1ccccc1)C(=O)N[C@@H](Cc1ccccc1)C(=O)N[C@@H](CCCCN)C(=O)O", "note": "[LNWGAFLKHFFK]", "values": [{"measurement": "MIC", "setting": "[1]", "result": 16, "unit": "µM"}, {"measurement": "MIC", "setting": "[2]", "result": "≥ 64", "unit": "µM"}]}
{"smiles": "CC[C@H](C)[C@H](NC(=O)[C@H](C)NC(=O)CNC(=O)[C@H](Cc1c[nH]c2ccccc12)NC(=O)[C@H](CC(N)=O)NC(=O)[C@@H](N)CC(C)C)C(=O)N[C@@H](CCCCN)C(=O)N[C@@H](CCCCN)C(=O)N[C@@H](Cc1cnc[nH]1)C(=O)N[C@H](C(=O)N[C@H](C(=O)N[C@@H](CCCCN)C(=O)O)[C@@H](C)CC)[C@@H](C)CC", "note": "[LNWGAIKKHIIK]", "values": [{"measurement": "MIC", "setting": "[1]", "result": "≥ 128", "unit": "µM"}]}
